Assay results: ChEMBL document CHEMBL5523753, “Structure-Based Design and Discovery of a Potent and Cell-Active LC3A/B Covalent Inhibitor” (J Med Chem, 2024)
Active and inactive are the calls of the source. The rule behind the calls is not given here.

Protein sequences, listed by entry. Tags and fused reporters are not part of them. Lines headed by an entry give the natural chain unless they say otherwise; changes in a name come on top.
UniProt Q9BXW4: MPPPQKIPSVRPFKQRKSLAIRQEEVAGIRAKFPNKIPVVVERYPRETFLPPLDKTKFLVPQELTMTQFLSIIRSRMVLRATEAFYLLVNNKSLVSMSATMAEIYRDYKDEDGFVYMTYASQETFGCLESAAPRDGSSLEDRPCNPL

Biological target: Microtubule-associated protein 1 light chain 3 gamma/Sequestosome-1 (Homo sapiens) (UniProt Q13501+Q9BXW4)
Test: Disruption of LC3C/P62 protein-protein interaction in HEK293 cells at 0.5 to 5 uM measured for 24 hrs by co-immunoprecipitation analysis
Assay type: cell-based
Conditions: dose 0.5-5 µM

Activity: inactive
SMILES: CN(C)CCNC=C1C(=O)CC(c2c(Cl)c(Cl)cc3[nH]ccc23)CC1=O (stereo unspecified)
